## Cyclic peptide permeability, from CycPeptMPDB

Values of Townsend et al. 2020, doi:10.26434/chemrxiv.13335941.v1, as listed in CycPeptMPDB.

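Conditions beyond the assay type are not listed; see the original paper. The list need not hold all peptides of the study. Peptides that the database sets to -10, its floor, are left out.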

PAMPA is the parallel artificial membrane permeability assay, which has no cells and reads passive diffusion. Permeability is given as log10 of P in cm/s; higher (less negative) is more permeable.

SMILES,PAMPA (log10 cm/s)
CC(C)C[C@@H]1NC(=O)[C@@H]2CCCN2C(=O)[C@H](CC(C)C)N(C)C(=O)[C@@H](CC(C)C)N(C)C(=O)[C@H](C)N(C)C(=O)[C@@H]2CCCN2C(=O)[C@H](Cc2ccccc2)NC1=O,-6.41
CC(C)C[C@@H]1NC(=O)[C@H]2CCCN2C(=O)[C@H](CC(C)C)NC(=O)CN(Cc2ccccc2)C(=O)[C@@H](C)NC(=O)[C@H](Cc2ccccc2)NC1=O,-6.06
CCCN1CC(=O)N[C@@H](CC(C)C)C(=O)N(C)[C@@H](CC(C)C)C(=O)N2CCC[C@H]2C(=O)N(C)[C@H](CC(C)C)C(=O)N[C@@H](Cc2ccccc2)C(=O)N2CCC[C@H]2C1=O,-5.74
CC(C)C[C@@H]1NC(=O)[C@@H](CC(C)C)N(C)C(=O)C[C@H](Cc2ccccc2)NC(=O)[C@H](Cc2ccccc2)NC(=O)[C@@H](CC(C)C)NC(=O)[C@@H]2CCCN2C1=O,-5.37
CC(C)C[C@H]1NC(=O)[C@H]2CCCN2C(=O)[C@H](CC(C)C)N(C)C(=O)[C@@H](CC(C)C)NC(=O)C[C@H](Cc2ccccc2)NC(=O)[C@H]2CCCN2C(=O)[C@H](Cc2ccccc2)NC1=O,-5.69
CC(C)C[C@H]1NC(=O)[C@@H]2CCCN2C(=O)[C@@H](CC(C)C)NC(=O)[C@H](CC(C)C)N(C)C(=O)[C@@H](C)N(C)C(=O)[C@@H]2CCCN2C(=O)[C@H](Cc2ccccc2)NC1=O,-6.43
CC(C)C[C@@H]1NC(=O)C[C@H](Cc2ccccc2)NC(=O)[C@H](Cc2ccccc2)NC(=O)[C@H](CC(C)C)N(C)C(=O)[C@@H]2CCCN2C(=O)C[C@H](Cc2ccccc2)NC1=O,-5.61
CC(C)C[C@H]1NC(=O)[C@@H]2CCCN2C(=O)CN(Cc2ccccc2)C(=O)[C@@H](CC(C)C)NC(=O)[C@@H](C)N(C)C(=O)[C@H]2CCCN2C(=O)[C@H](Cc2ccccc2)NC1=O,-6.46
CC(C)C[C@@H]1NC(=O)[C@@H](C)NC(=O)[C@H](Cc2ccccc2)NC(=O)[C@H](CC(C)C)N(C)C(=O)[C@@H]2CCCN2C(=O)[C@H](CC(C)C)N(C)C1=O,-6.02
CC(C)C[C@@H]1NC(=O)[C@@H](CC(C)C)NC(=O)[C@H](C)N(C)C(=O)[C@H](Cc2ccccc2)NC(=O)[C@@H](CC(C)C)N(C)C(=O)[C@H]2CCCN2C1=O,-5.06
CC(C)C[C@@H]1NC(=O)[C@H](C)N(C)C(=O)[C@H](Cc2ccccc2)NC(=O)[C@H](CC(C)C)N(C)C(=O)[C@@H]2CCCN2C(=O)CN(Cc2ccccc2)C1=O,-5.15
CCCN1CC(=O)N[C@H](CC(C)C)C(=O)N[C@@H](Cc2ccccc2)CC(=O)N2CCC[C@H]2C(=O)N[C@H](CC(C)C)C(=O)N[C@@H](Cc2ccccc2)C(=O)N2CCC[C@H]2C1=O,-6.10
CC(C)C[C@@H]1C(=O)N(C)[C@H](CC(C)C)C(=O)N2CCC[C@@H]2C(=O)N(C)[C@@H](CC(C)C)C(=O)N[C@@H](Cc2ccccc2)C(=O)N2CCC[C@H]2C(=O)N[C@@H](C)C(=O)N1C,-5.46
CC(C)C[C@@H]1C(=O)N[C@@H](Cc2ccccc2)C(=O)N[C@H](C)C(=O)N[C@H](CC(C)C)C(=O)N(C)[C@@H](CC(C)C)C(=O)N2CCC[C@H]2C(=O)N1C,-6.49
CC(C)C[C@H]1NC(=O)[C@@H]2CCCN2C(=O)[C@H](CC(C)C)N(C)C(=O)[C@@H](CC(C)C)NC(=O)[C@H](C)NC(=O)[C@H](Cc2ccccc2)NC1=O,-6.59
CC(C)C[C@H]1C(=O)N[C@@H](Cc2ccccc2)CC(=O)N2CCC[C@H]2C(=O)N(C)[C@@H](CC(C)C)C(=O)N[C@@H](Cc2ccccc2)C(=O)N[C@H](C)C(=O)N1C,-5.32
CC(C)C[C@@H]1NC(=O)C[C@H](Cc2ccccc2)NC(=O)[C@H](Cc2ccccc2)NC(=O)[C@H](CC(C)C)N(C)C(=O)[C@H]2CCCN2C(=O)[C@@H](CC(C)C)N(C)C1=O,-5.31
CC(C)C[C@@H]1NC(=O)C[C@H](Cc2ccccc2)NC(=O)[C@@H]2CCCN2C(=O)[C@H](Cc2ccccc2)NC(=O)[C@@H](CC(C)C)NC(=O)[C@H]2CCCN2C(=O)CN(Cc2ccccc2)C1=O,-5.85

Extract of 3 entries:

SMILES,PAMPA (log10 cm/s)
CC(C)C[C@H]1NC(=O)[C@H]2CCCN2C(=O)[C@H](CC(C)C)N(C)C(=O)[C@@H](CC(C)C)NC(=O)C[C@H](Cc2ccccc2)NC(=O)[C@H]2CCCN2C(=O)[C@H](Cc2ccccc2)NC1=O,-5.69
CC(C)C[C@H]1C(=O)N[C@@H](Cc2ccccc2)CC(=O)N2CCC[C@H]2C(=O)N(C)[C@@H](CC(C)C)C(=O)N[C@@H](Cc2ccccc2)C(=O)N[C@H](C)C(=O)N1C,-5.32
CC(C)C[C@@H]1NC(=O)C[C@H](Cc2ccccc2)NC(=O)[C@H](Cc2ccccc2)NC(=O)[C@H](CC(C)C)N(C)C(=O)[C@@H]2CCCN2C(=O)C[C@H](Cc2ccccc2)NC1=O,-5.61